A549 tox-1: kills or reduces viability of A549 cells in Nrf2 counter-screen | A549 ARE-Fluc cells, CellTiter-Fluor viability, 18-24 h | Potency, µM (top dose mostly 46 µM), without a hit: top-dose activity change, negative = cytotoxicity, hits mostly inhibitors | actives 0.16% (n = 390,000) | AID 504648; further: potency means the concentration at half of the fitted maximal effect; on the % scale 0 is the no-effect control and ±100 the full control effect
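A549 ARE-Fluc cells in 5% FBS OPTI-MEM, 5000 cells/well, rested 2 h then exposed to compounds in concentration-response for 18-24 h at 37 °C. Viability by CellTiter-Fluor fluorescence (Ex 405/Em 525) after 30 min; luciferase luminescence (BugLite, 15 min, RT) read afterwards.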
miR-21 reporter: miR-21 reporter, rising signal; HeLa miR-21 FLuc reporter, luciferase, 48 h; Potency, µM (top dose mostly 38.3 µM), without a hit: at the highest dose reporter change, positive = more light; 340,000 tested, under 10 active; active = well fitted rising curve with a large enough effect; inconclusive = small, poorly fitted or top-dose-only effect; inactive = no such curve, though single readings can be large or run the other way;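 further: % of control where 0% means no effect; miR-21 action dims this reporter so a rising signal means less miR-21 action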
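HeLa miR-21-FLuc reporter line, endogenous miR-21; 2000 cells/well in DMEM/10% FBS; compound titration up to ~40uM final, 48 h, 37 degree Celsius; luciferase detection reagent, 15 min lysis, CCD luminescence.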
Mito fusion yeast: mitochondrial division inhibition or fusion activation. actives 0.23% (n = 320,000). AID 485298. S. cerevisiae fusion-defective mutant growth rescue, CellTiterGlo 48 h. Potency, µM (highest dose often 46.1 µM), for the others: top-dose growth rescue (activation), usual class: activators; further: potency means the concentration at half of the fitted maximal effect; % of control where 0% means no effect; nearly all actives have a fitted effect of over 45% in size
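Compounds are tested for their ability to restore growth of mitochondrial fusion-defective yeast strains at non-permissive 37C in YPEG medium over 48 hours. Viability is quantified by luciferase luminescence.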
Nrf2 block: Nrf2 pathway inhibition. A549 ARE-Fluc reporter, luciferase luminescence, 18-24 h. Potency, µM (series often up to 46 µM), inactives show at the highest dose activity change, negative = inhibition, actives largely listed as inhibitors. actives 2.1% (n = 360,000). AID 504444; further: potency means the concentration at half of the fitted maximal effect; on the % scale 0 is the no-effect control and ±100 the full control effect; nearly all actives have a fitted effect of over 60% in size
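A549 ARE_Fluc cells, 5000/well, 5% FBS OPTI-MEM; compounds in dose-response, 18-24 h at 37 °C/5% CO2; CellTiter-Fluor viability read (Ex 405/Em 525), then BugLite luciferase luminescence = Nrf2 activity.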
Nrf2 ARE act: Nrf2 pathway activation; Potency, µM (titrated, usually from 46.1 µM), for the others: at the top dose activation, most hits filed as activators; AID 624171; AREc32 ARE-luciferase reporter (MCF7-derived line), luminescence, 24 h; actives 0.31% (n = 410,000); further: potency means the concentration at half of the fitted maximal effect; % of control where 0% means no effect; nearly all actives have a fitted effect of over 65% in size
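Cells of the AREc32 ARE-luciferase line are plated in OPTI-MEM containing 5% FBS and left overnight at 37 deg C. Compounds are pinned in, incubation continues 24 hr, and firefly luciferase signal is then measured.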
FLuc enzyme inh: blocks purified firefly luciferase in Nrf2 counterscreen. AID 720522. purified firefly luciferase, luminescence inhibition. actives 4% (n = 1,400). Potency, µM (top dose mostly 57.5 µM), for inactives: at the top dose activity change, negative = inhibition, usual class: inhibitors. shares compounds with Nrf2 block; further: potency means the concentration at half of the fitted maximal effect; on the % scale 0 is the no-effect control and ±100 the full control effect; nearly all actives have a fitted effect of over 65% in size
A549 tox-2: counter-screen for Nrf2 inhibitors: cytotoxicity in A549 ARE cells; shares compounds with Nrf2 block; actives 2% (n = 1,400); AID 720523; Potency, µM (top dose mostly 46.1 µM), for the others: at the top dose activity change, negative = cytotoxicity, most hits filed as inhibitors; A549 ARE-Fluc cells, cytotoxicity counterscreen;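 further: potency means the concentration at half of the fitted maximal effect; cells exposed to compounds for 18 to 24 hours; on the % scale 0 is the no-effect control and ±100 the full control effect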
Nrf2 ARE inh: Nrf2 inhibition confirmed, A549 ARE-luciferase; shares compounds with Nrf2 block; A549 ARE-firefly luciferase reporter, luminescence; Potency, µM (titrated, usually from 46.1 µM), for the others: at the top dose activity change, negative = inhibition, most hits filed as inhibitors; actives 74% (n = 1,400); AID 720524; further: potency means the concentration at half of the fitted maximal effect; on the % scale 0 is the no-effect control and ±100 the full control effect; nearly all actives have a fitted effect of over 65% in size
* hit, by the source's call. Only some compounds are listed: those with a hit (about 2.3% of all), similar ones and a draw of the others. Unless noted, the call rests on the fitted dose curve; in most records, active means well fitted curve in the direction sought with a large enough effect; inconclusive means small, poorly fitted or top-dose-only effect, or another doubt; inactive means no such curve, though single readings can be large; an effect the other way counts as inactive or inconclusive.

What do the screens show for `CC1CCN(C(=O)CSc2nc3c(cnn3-c3ccccc3)c(=O)[nH]2)CC1`?
A549 tox-1: -14.3%; miR-21 reporter: -0.5%; Mito fusion yeast: 6.7%; Nrf2 block: 5.8µM*; Nrf2 ARE act: 0.2%; FLuc enzyme inh: 2.7%; A549 tox-2: -23.2%; Nrf2 ARE inh: -26.4%

What do the screens show for `COc1cc(OC)c(/C=C/c2c3ccccc3cc[n+]2C)c(OC)c1`?
FLuc enzyme inh: 1.2%; A549 tox-2: inconclusive; Nrf2 ARE inh: 2.06µM*

What do the screens show for `COc1cc(OC)c(/C=C/c2cc3c4ccccc4ccc3[n+](C)c2)c(OC)c1`?
FLuc enzyme inh: 6.75µM*; A549 tox-2: -15.2%; Nrf2 ARE inh: 4.61µM*

Results for CC[n+]1c(/C=C/c2ccc(OC)c(OC)c2)ccc2ccccc21 ?
A549 tox-1: -19.4%; miR-21 reporter: -35.0%; Mito fusion yeast: -3.5%; Nrf2 block: inconclusive; Nrf2 ARE act: 3.8%

How did COc1ccc(N=Cc2c(OC)ccc3ccccc23)cc1 do in these assays?
A549 tox-1: -1.5%; Nrf2 block: 0.9%; Nrf2 ARE act: 3.1%

Results for COc1ccc(CCn2cnc3c([nH]c4ccccc43)c2=O)cc1 ?
A549 tox-1: 4.4%; miR-21 reporter: -13.7%; Mito fusion yeast: -1.6%; Nrf2 block: 16.7%; Nrf2 ARE act: -0.4%

How did COc1ccc(CNc2ncnc3c2[nH]c2ccccc23)cc1 do in these assays?
A549 tox-1: -19.2%; miR-21 reporter: inconclusive; Mito fusion yeast: 0.6%; Nrf2 block: 4.61µM*; Nrf2 ARE act: 8.2%; FLuc enzyme inh: inconclusive; A549 tox-2: -19.8%; Nrf2 ARE inh: 5.17µM*

How did Cc1cccc(N(CC(O)Cn2c3ccccc3c3ccccc32)S(=O)(=O)c2ccc(F)cc2)c1 (stereo unspecified) do in these assays?
A549 tox-1: -25.6%; miR-21 reporter: inconclusive; Nrf2 block: inconclusive; Nrf2 ARE act: 0.7%

How did CCOC(=O)c1noc2ncn(CC(=O)Nc3cccc(Cl)c3)c(=O)c12 do in these assays?
A549 tox-1: 8.2%; miR-21 reporter: 3.1%; Nrf2 ARE act: -1.0%

How did CC(=O)Nc1ccc(S(=O)(=O)NCCNS(=O)(=O)c2ccc(NC(C)=O)cc2)cc1 do in these assays?
A549 tox-1: 3.6%; miR-21 reporter: -0.2%; Mito fusion yeast: 0.6%; Nrf2 block: 1.3%; Nrf2 ARE act: -0.1%

Molecules shown so far that have a halogen:
How did Cc1cccc(N(CC(O)Cn2c3ccccc3c3ccccc32)S(=O)(=O)c2ccc(F)cc2)c1 (stereo unspecified) do in these assays?
A549 tox-1: -25.6%; miR-21 reporter: inconclusive; Nrf2 block: inconclusive; Nrf2 ARE act: 0.7%

How did CCOC(=O)c1noc2ncn(CC(=O)Nc3cccc(Cl)c3)c(=O)c12 do in these assays?
A549 tox-1: 8.2%; miR-21 reporter: 3.1%; Nrf2 ARE act: -1.0%

(further entries)
How did CC(=O)Nc1ccc(S(=O)(=O)NCCSCc2ccc(Cl)cc2Cl)cc1 do in these assays?
A549 tox-1: -3.8%; miR-21 reporter: 22.2%; Mito fusion yeast: 9.7%; Nrf2 block: 9.2µM*; Nrf2 ARE act: -0.7%; FLuc enzyme inh: 1.7%; A549 tox-2: -4.2%; Nrf2 ARE inh: 10.3µM*

How did Cc1cnc2ccc3ccccc3c2c1C do in these assays?
FLuc enzyme inh: inconclusive; A549 tox-2: -27.1%; Nrf2 ARE inh: 6.51µM*

Results for CCN1CCN(C(c2cccc(F)c2)c2c(O)cc(C)n(Cc3ccco3)c2=O)CC1 (stereo unspecified) ?
A549 tox-1: -4.5%; miR-21 reporter: 4.2%; Nrf2 ARE act: -0.6%

Results for COc1ccc(OC)c(/C=C/c2ccc3ccccc3[n+]2C)c1 ?
FLuc enzyme inh: -2.1%; A549 tox-2: -33.2%; Nrf2 ARE inh: 7.31µM*

What do the screens show for `C[n+]1c(/C=C/c2ccc(F)cc2)ccc2ccccc21`?
FLuc enzyme inh: inconclusive; A549 tox-2: -21.5%; Nrf2 ARE inh: 8.2µM*

From PubChem
